Publication PMC11361748

Biological target: keratin 17 (human (endogenous in A431)) (UniProt Q04695)
Experiment: proximity ligation; Duolink PLA on fixed, permeabilised parental A431 keratinocytes treated with acetone vehicle or TPA for 30 min; PLA dots per cell; KRT17 null cells compared

- fold change of PLA signal 30 min after TPA against acetone control: 2.5 fold
Substance: Receptor for Activated C Kinase 1 (from UniProt P63244 1-317) (natural protein)
